{"sequences": {"note": "By UniProt entry, the sequences of proteins in these tests, tags left out.", "UniProt Q61143, whole entry": "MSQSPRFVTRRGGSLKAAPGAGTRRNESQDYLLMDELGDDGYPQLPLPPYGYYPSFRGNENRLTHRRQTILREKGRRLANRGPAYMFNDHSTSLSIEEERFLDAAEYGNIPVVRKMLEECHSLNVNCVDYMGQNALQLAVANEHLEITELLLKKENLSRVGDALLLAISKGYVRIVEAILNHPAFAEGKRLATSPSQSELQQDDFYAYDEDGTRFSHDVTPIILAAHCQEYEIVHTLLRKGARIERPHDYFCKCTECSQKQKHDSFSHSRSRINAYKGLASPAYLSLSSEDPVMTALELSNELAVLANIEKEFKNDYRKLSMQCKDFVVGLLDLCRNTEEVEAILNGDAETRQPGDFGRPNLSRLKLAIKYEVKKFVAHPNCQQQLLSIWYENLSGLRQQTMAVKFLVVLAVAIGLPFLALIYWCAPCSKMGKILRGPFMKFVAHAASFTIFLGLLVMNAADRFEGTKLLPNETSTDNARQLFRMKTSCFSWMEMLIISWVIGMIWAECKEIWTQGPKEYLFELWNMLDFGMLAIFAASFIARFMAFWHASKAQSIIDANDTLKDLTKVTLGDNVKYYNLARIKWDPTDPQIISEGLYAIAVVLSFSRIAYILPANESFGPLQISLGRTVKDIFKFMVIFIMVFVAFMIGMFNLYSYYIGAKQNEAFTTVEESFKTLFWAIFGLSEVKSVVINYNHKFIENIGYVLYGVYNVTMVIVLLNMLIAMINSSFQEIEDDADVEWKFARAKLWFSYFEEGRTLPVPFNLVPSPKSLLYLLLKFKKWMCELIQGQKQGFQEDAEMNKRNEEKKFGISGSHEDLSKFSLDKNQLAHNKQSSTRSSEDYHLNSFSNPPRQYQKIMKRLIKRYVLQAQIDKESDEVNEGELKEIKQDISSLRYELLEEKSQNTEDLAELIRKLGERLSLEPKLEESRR"}, "source": "PubChem BioAssay AID488960", "about": "(Johns Hopkins Ion Channel Center, 2010)", "note": "The entries are a selection whose mix differs from that of the whole data set. Some results for these compounds are left out of this collection, so the calls shown say nothing about other tests. Active and inactive are the calls of the source.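 Rule for the calls: active = fluorescence ratio falls more than 5 SD below the full-stimulation control mean, in both duplicate runs; inactive = the rest.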", "data": [{"biological_target": "Short transient receptor potential channel 6 (Mus musculus) (UniProt Q61143)", "test": "blockers of TRPC6 cation channel activity – HEK293 cells, membrane potential dye, duplicate, confirmation (AID 488960);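 note: integrated fluorescence ratio of peak minus minimum over baseline after agonist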", "settings": "ACh-evoked depolarization, at 10 µM, stronger effect = higher value", "values": [{"compound": "CCN(CC)CC(C)C(C)OC(=O)C(O)(c1ccccc1)c1ccccc1", "note": "(stereo not drawn)", "inhibition": "active: 91.5%"}, {"compound": "CN1[C@@H]2CC[C@H]1CC(OC(=O)C(O)(c1ccccc1)c1ccccc1)C2", "note": "(stereo partly drawn)", "inhibition": "active: 93%"}, {"compound": "O=C(OC1CN2CCC1CC2)C(CO)(c1ccccc1)c1ccccc1", "note": "(stereo not drawn)", "inhibition": "active: 95.4%"}]}]}
